Literature values, collected in patent publication US20040241243A1, “Angiogenesis promotion by prostaglandin compositions and methods” (NexMed (Holdings) Inc., priority 2003, published 2004).
pKd: −log10 of the molar value.

Amino acid sequences for entries named in this document (tags omitted). A change or cut given only in a name is not applied to a line headed by its entry.
UniProt P32240: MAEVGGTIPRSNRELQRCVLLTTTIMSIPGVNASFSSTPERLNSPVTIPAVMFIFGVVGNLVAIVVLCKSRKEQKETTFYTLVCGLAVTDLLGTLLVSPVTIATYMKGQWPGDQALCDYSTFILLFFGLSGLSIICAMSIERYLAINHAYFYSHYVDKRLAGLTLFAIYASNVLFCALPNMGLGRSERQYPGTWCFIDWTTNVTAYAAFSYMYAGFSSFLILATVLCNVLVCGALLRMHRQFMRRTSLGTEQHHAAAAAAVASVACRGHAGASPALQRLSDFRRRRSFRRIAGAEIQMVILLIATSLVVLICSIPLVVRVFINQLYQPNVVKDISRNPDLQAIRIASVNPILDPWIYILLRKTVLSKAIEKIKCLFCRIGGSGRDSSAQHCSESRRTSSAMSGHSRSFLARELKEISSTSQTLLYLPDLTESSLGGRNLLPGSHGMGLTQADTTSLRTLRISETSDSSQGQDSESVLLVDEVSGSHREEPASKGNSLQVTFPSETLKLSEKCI

Molecular target: EP4 receptor (Mus musculus, UniProt P32240)
Conditions: read-out: affinity for the EP4 receptor; cited from earlier work

## CCCCC[C@H](O)/C=C/[C@H]1[C@H](O)CC(=O)[C@@H]1C/C=C\CCCC(=O)O [PGE2, prostaglandin E2]
  pKd: ~8.70
